Measurements reported in patent US20070074295A1 (priority 2000, published 2007).

System: parvalbumin mRNA
Test: Parvalbumin mRNA in situ hybridisation in chronic PCP model
Type: in vivo, rat
Settings: chronic PCP treatment, alone or with clozapine or haloperidol
From the text: In order to validate further this chronic PCP model the effect of this treatment paradigm on parvalbumin mRNA expression was investigated. A decrease in parvalbumin mRNA was observed after chronic PCP treatment within the prelimbic region of the prefrontal cortex (controls 0.0717±0.0011, PCP 0.0536±0.0023 relative optical density (ROD)). This PCP-induced decrease was reversed by clozapine (0.0693±0.0050 ROD) but not by haloperidol (0.0557±0.0022 ROD) . PCP produced a significant decrease in parvalbumin mRNA within the ventral reticular nucleus of the thalamus (controls 0.6416±0.0122, PCP 0.5032±0.0194 ROD) which was reversed by both clozapine (0.6354±0.0173 ROD) and haloperidol (0.06199±0.0137) (see FIG. 12). This decrease in parvalbumin expression is in agreement with studies of schizophrenic post mortem tissue within the prefrontal cortex (Beasley & Reynolds, 1997) and anterior thalamus (Danos et al, 1998). The ability of clozapine but not haloperidol to reverse the decrease in parvalbumin expression in the prefrontal cortex is consistent with its ability to alleviate the cognitive deficits/negative symptoms in schizophrenia. Thus, reversal of parvalbumin deficits may be a useful marker for detecting atypical antipsychotic activity.
In situ hybridisation: a 45mer oligonucleotide probe was designed against bases 223-267 of the rat parvalbumin gene (GenBank accession number A819345). In situ hybridisation was carried out according to the method of Wisden and Morris (1994).

Compound	parvalbumin mRNA, prelimbic region of the prefrontal cortex	parvalbumin mRNA, ventral reticular nucleus of the thalamus
O=C(CCCN1CCC(O)(c2ccc(Cl)cc2)CC1)c1ccc(F)cc1 [haloperidol]	0.0557±0.0022 relative optical density (ROD)	0.06199±0.0137 ROD
CN1CCN(C2=Nc3cc(Cl)ccc3Nc3ccccc32)CC1 [clozapine]	0.0693±0.0050 relative optical density (ROD)	0.6354±0.0173 ROD
